Assay outcomes: PubChem BioAssay, ICCB-Longwood Screening Facility, Harvard Medical School
Shown are actives, neighbours in structure and some others; about 0.43% of the full set was active somewhere.
GIV-Gai inh: inhibitors of GIV peptide binding to Galpha-i3, primary screen, biochemical, fluorescence polarization, FITC-GIV GBA peptide, rat Galphai3; 90 min; stronger effect = lower value; scaled: aluminum fluoride 0%, vehicle 100%; percent of control (FP), % (no concentration beside the values); 210,000 tested, 0.42% active; AID 1224905, 2016;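 active = replicate mean at 85% of control or lower, very high polarization wells dropped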;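 note: wells of about 15 µL received 100 nL stock; the first replicate is given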
HCMV NEC inh: disrupts HCMV UL50-UL53 complex binding; HTRF UL50-UL53 interaction, normalized percent inhibition; inhibition, % (test concentration not listed); 190,000 compounds, 0.15% hits; AID 1918969; in the data active means inhibition above about 27%, passing the limit was not always enough
GIV-Gai FP conf: GIV-Galpha-i3 inhibition, FP confirmation; shares compounds with GIV-Gai inh; FITC-GIV peptide binding to Galphai3, fluorescence polarization; hits give low values; fluorescence polarization, mP at 100 µM; 580 compounds, 38% hits; AID 1259350;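 active means inhibition score of 15 or more, meaning 100 minus mean polarization as percent of control over three replicates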;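 further: lower mP means peptide displaced from Galphai3 so more inhibition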
GIV Gai AS conf: GIV-Galpha-i3 inhibition, AlphaScreen confirmation. shares compounds with GIV-Gai inh. AlphaScreen Galphai3-GIV binding, purified proteins, 90 min; hits give low values. AlphaScreen counts at 100 µM. 580 compounds, 39% hits;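 active means inhibition score at or above a set limit, where the score is 100 minus the three-replicate mean percent of control signal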
* = called active by the depositor; / = not tested or not shown.

Compound,GIV-Gai inh,HCMV NEC inh,GIV-Gai FP conf,GIV Gai AS conf
Cn1cc2c3c(cccc31)CN(C(=O)NCC1CCCO1)CC2 (configuration not stated),92.2,/,/,/
NNC(=O)c1ccc(CS(=O)(=O)c2ccccc2)o1,/,5.4,/,/
O=C(O)c1ccc(CS(=O)(=O)c2ccccc2)o1,77.1*,/,55.1,2163*
COc1ccccc1OCCC(=O)C(C#N)c1nc2ccccc2[nH]1 (configuration not stated),/,-21.5,/,/
Cc1ccc(-c2nc3scc(-c4ccc(Br)cc4)c3c(=O)o2)cc1,103.0,-20.1,/,/
COCCN=C1Nc2cc(C)c(C)cc2NC12CCCCCC2,104.3,/,/,/
CC1(C)Cc2ccccc2C(C2=C(O)CCCC2=O)=N1,105.2,/,/,/
CC1(C)Cc2ccccc2C2=NNC(=O)C2=N1,75.6*,-28.6,54.3*,30303
CCOC(=O)c1sc2nc(SCC(=O)Nc3ccc(N(C)C)cc3)n(CC3CCCO3)c(=O)c2c1C (configuration not stated),106.4,/,/,/
O=C1C2CC=C(Cl)CC2C(=O)N1CCO (configuration not stated),103.9,9.0,/,/
CCOC(=O)CN1C(=O)C2CC=C(Cl)CC2C1=O (configuration not stated),80.7*,-15.9,61.1,47532
O=C(O)C1CC(=O)N(Cc2ccc(F)cc2)C1 (configuration not stated),99.0,/,/,/
O=C(O)C1CC(=O)N(Cc2ccc3c(c2)OCO3)C1 (configuration not stated),51.3*,29.6,18.5*,1816*
Cc1c(C=Nc2ccc(SC#N)c(Cl)c2)c(O)[nH]c(=O)c1C#N,48.6*,-16.3,73.7,40787
Cc1c(C=Nc2ccc(Cl)cc2)c(O)n(C)c(=O)c1C#N,108.4,-35.4,/,/
COc1ccc(OC)c(NC(=O)CCc2c(C)nc3c(-c4ccccc4)c(C)nn3c2C)c1,101.5,-4.9,/,/
COc1ccc(NC(=O)CCc2c(C)nc3c(-c4ccc(F)cc4)c(C)nn3c2C)c(OC)c1,92.3,-7.1,79.9,32949
COc1cc(C2Nc3ccccc3-c3nnc(SC)nc3O2)cc(Br)c1O (configuration not stated),105.2,-50.9,/,/
CSc1nnc2c(n1)OC(c1cccs1)Nc1ccccc1-2 (configuration not stated),53.0*,-37.2,61.4,27085*
COc1ccc(C2Nc3ccccc3-c3nnc(SC)nc3O2)cc1C (configuration not stated),36.0*,-36.8,81.5,27274
CCCSc1nnc2c(n1)OC(c1cccs1)Nc1ccccc1-2 (configuration not stated),102.7,-30.9,/,/
CCOc1ccc(-n2c(=O)c3sccc3n(CC(=O)Nc3cccc(C(F)(F)F)c3)c2=O)cc1,104.2,/,/,/
CN1CCN(c2ccc(C(=O)O)cc2NS(=O)(=O)c2ccccc2)CC1,111.5,-8.9,/,/
CC(C)c1ccc(S(=O)(=O)Nc2cc(C(=O)O)ccc2N(C)C)cc1,102.8,10.8,/,/
CN(C)c1ncc(C(=O)O)cc1NS(=O)(=O)c1ccccc1,49.2*,-38.1,36.2*,8377*
CCN(CC)c1ncc(C(=O)O)cc1NS(=O)(=O)c1c(C)cc(C)cc1C,80.7*,-21.2,71.1,22183
Cc1cc(C)cc(S(=O)(=O)Nc2cc(C(=O)O)cnc2N(CC(C)C)CC(C)C)c1,116.7,-33.6,/,/
CCN(CCN(C)C)c1ncc(C(=O)O)cc1NS(=O)(=O)c1ccc(C(C)C)cc1,60.3*,-17.6,41*,35632
CCN(CC)c1ncc(NS(=O)(=O)c2cc(C)c(C)cc2C)cc1C(=O)O,107.2,-39.7,/,/
CCN(CCN(C)C)c1ncc(NS(=O)(=O)c2cc(C)c(C)cc2C)cc1C(=O)O,58.3*,-41.8,42.6*,27195
Cc1nnc2c3ccccc3nc(Nc3ccc4c(c3)OCO4)n12,101.0,-20.1,/,/
Cc1ccc(CNC(=O)c2ccc(-c3nc(CCN(C)C(=O)c4ccc(Cl)cc4)no3)cc2)cc1,104.4,/,/,/
COc1ccc(NC(=O)c2cc3c(=O)oc4ccccc4c3n2C)cc1Cl,105.3,-14.9,/,/
CCN(CCN(C)C)c1ncc(C(=O)O)cc1NS(=O)(=O)c1ccc(F)c(F)c1,60.6*,-13.0,36.5*,38193
CCCCN(C)c1ncc(C(=O)O)cc1NS(=O)(=O)c1cc(F)ccc1F,111.9,-45.6,/,/
O=C(Cn1nnc2ccccc2c1=O)c1ccccc1,/,-86.4,/,/
O=c1[nH]c(SCc2cc(F)cc(F)c2)nc2c1CN(Cc1ccccc1)CC2,98.6,/,/,/
COc1ccccc1C(=O)ON1C(=O)c2ccccc2C1=O,92.6,-22.3,/,/
COc1cscc1C(=O)NC1(O)C(=O)c2ccccc2C1=O,63.9*,53.2*,60.3,46565
O=C(NC1(O)C(=O)c2ccccc2C1=O)c1ccccc1,52.3*,/,46.7*,37206
O=C(NN1C(=O)c2ccccc2C1=O)c1ccccc1,/,-8.0,/,/
CCc1cc(Sc2nnc(NC(C)=O)s2)n2ncnc2n1,104.6,/,/,/
O=C(/C=C/c1ccc(F)cc1)NC(Cc1ccccc1)C(=O)O (configuration not stated),/,-25.2,/,/
COC(=O)C1=C(C)OC(N)=C(C#N)C1c1ccc([N+](=O)[O-])cc1 (configuration not stated),102.0,-60.4,/,/
COc1ccc(CNC2CC(C)(C)NC(C)(C)C2)cc1,/,-1.0,/,/
Cc1cc(C)n2nc3nc(N4CCCC4)nc(-c4ccccc4)c3c2n1,104.6,-0.4,/,/
COc1ccc(-c2nc(N3CCC(C)CC3)nc3nn4c(C)cc(C)nc4c23)cc1,87.8,-17.8,65.9,41938
O=C(Cc1ccccc1)c1cc(O)c(O)cc1O,101.6,-50.6,/,/
CCCN1C(=O)NC2(O)C(=O)c3ccccc3C12O (configuration not stated),76.8*,/,57.2,47718
CN1C(=O)NC2(O)C(=O)c3ccccc3C12O (configuration not stated),109.8,/,/,/

Taken from above.
GIV-Gai inh result of CCOc1ccc(-n2c(=O)c3sccc3n(CC(=O)Nc3cccc(C(F)(F)F)c3)c2=O)cc1 = 104.2
GIV-Gai inh result of COc1cc(C2Nc3ccccc3-c3nnc(SC)nc3O2)cc(Br)c1O (configuration not stated) = 105.2
GIV-Gai inh result of Cc1ccc(CNC(=O)c2ccc(-c3nc(CCN(C)C(=O)c4ccc(Cl)cc4)no3)cc2)cc1 = 104.4

Remaining list, next part.
Compound,GIV-Gai inh,HCMV NEC inh,GIV-Gai FP conf,GIV Gai AS conf
Cc1cccc(NC(=O)c2sc3nc(-c4cccs4)cc(C(F)(F)F)c3c2N)n1,113.8,/,/,/
Nc1c(C(=O)Nc2ccccn2)sc2nc(-c3cccs3)cc(C(F)(F)F)c12,42.5*,/,54,56627
CCOC(=O)C1CCN(/C(C)=C\C(=O)C(F)(F)F)CC1,/,-16.6,/,/
COC(=O)Cc1c(C)c2cc3c(c(C)c2oc1=O)OCN(CCc1ccc(OC)cc1)C3,98.5,-45.8,/,/
CCc1c(C)c2cc3c(c(C)c2oc1=O)OCN(CCc1ccc(OC)c(OC)c1)C3,82.7*,-33.1,79.3,14061*
Cc1c2cnn(CC(=O)N3CCc4ccccc43)c(=O)c2c(C)n1Cc1ccc(F)cc1,106.4,0.8,/,/
Cc1ccc2c(Sc3ccc(Cl)cc3)c(C(=O)NC(C)C)[nH]c2c1,56.6*,-15.7,59.8,42527
CCC(C)NC(=O)c1[nH]c2cc(C)ccc2c1Sc1ccc(Cl)cc1 (configuration not stated),101.1,-13.5,/,/
CC(C)(C)NCC(O)Cn1c2ccc(Cl)cc2c2cc(Cl)ccc21 (configuration not stated),109.9,/,/,/
COc1cc(OC)c([N+](=O)[O-])cc1/C=C1\C(=O)NC(=O)N(c2ccc(Br)cc2)C1=O,109.3,-21.9,/,/
S=c1[nH]nc(C2COc3ccccc3O2)o1 (configuration not stated),83.0*,-0.6,68.2,3039*

One compound at a time, from the list above.
Listed for CCc1c(C)c2cc3c(c(C)c2oc1=O)OCN(CCc1ccc(OC)c(OC)c1)C3 = GIV-Gai inh: 82.7*; HCMV NEC inh: -33.1; GIV-Gai FP conf: 79.3; GIV Gai AS conf: 14061*
Listed for Cc1cccc(NC(=O)c2sc3nc(-c4cccs4)cc(C(F)(F)F)c3c2N)n1 = GIV-Gai inh: 113.8; HCMV NEC inh: /; GIV-Gai FP conf: /; GIV Gai AS conf: /
